Assay results taken from PubChem BioAssay AID2540 (Sanford-Burnham Center for Chemical Genomics, 2010).
The entries are a selection whose mix differs from that of the whole data set. Active and inactive are the calls of the source. Cut-off read from the data, not from the text of the source: active = inhibition above about 50%; inactive = the rest.

Sequences of proteins named here, by UniProt entry; tags and fusion partners are left off. A change or cut given only in a name is not applied to a line headed by its entry.
UniProt Q96LD8: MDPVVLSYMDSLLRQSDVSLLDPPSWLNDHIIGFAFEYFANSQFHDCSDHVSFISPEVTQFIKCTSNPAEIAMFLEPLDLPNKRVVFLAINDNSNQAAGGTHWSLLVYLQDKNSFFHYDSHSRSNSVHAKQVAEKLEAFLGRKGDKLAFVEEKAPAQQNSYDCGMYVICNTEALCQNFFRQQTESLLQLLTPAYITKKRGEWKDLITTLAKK

Molecular target: Sentrin-specific protease 8 (Homo sapiens) (UniProt Q96LD8)
Assay: SENP8 protease inhibitors, primary screen, biochemical, luminescence (AID 2540)
Conditions: purified SENP8, Z-RLRGG-aminoluciferin cleavage, at 10 µM, active compounds read high

For CCN(N=Nc1nonc1N)c1nonc1N, which inhibition is on record?
The inhibition was inactive: 5.37%.

For O=[N+]([O-])c1cc([N+](=O)[O-])c(CCN2CCOCC2)c([N+](=O)[O-])c1, which inhibition is on record?
Its inhibition is inactive: 11.3%.

Cc1cc(SC(NC(=O)c2ccc(F)cc2)C(Cl)(Cl)Cl)ncn1 (centres undefined) was tested. Which inhibition did it give?
Its inhibition is inactive: -13.8%.

CCOP(=O)(Nc1ccccc1)OCC was tested. Which inhibition did it give?
The inhibition was inactive: -3.33%.

Which inhibition does the source give for Cc1ccc(NP(=O)(Oc2ccccc2F)Oc2ccccc2F)nc1 here?
Its inhibition is inactive: -1.69%.

Which inhibition does the source give for CN(C(=O)Cc1ccc(Cl)c(Cl)c1)[C@H]1CCCC[C@@H]1N1CCCC1 here?
Its inhibition is inactive: 8.11%.

How did the inhibition turn out when CC(=O)Nc1ccc([As](=O)(O)O)cc1 was run?
The inhibition was inactive: 4.88%.

O=C(O)c1ccccc1[As](=O)(O)O was tested. Which inhibition did it give?
Its inhibition is inactive: 9.63%.

O=P(Nc1nc2ccc(Cl)cc2s1)(c1ccccc1)c1ccccc1 was tested. Which inhibition did it give?
Its inhibition is inactive: -4.69%.

With Nc1cc(N)c2nonc2c1[N+](=O)[O-] as the molecule, how does the inhibition read?
The inhibition was inactive: 4.57%.

For CC(C)CC(=O)NC(Sc1ccc(Cl)cc1)C(Cl)(Cl)Cl (centres undefined), which inhibition is on record?
Its inhibition is inactive: 3.02%.

For Oc1ccccc1CNc1ccccn1, which inhibition is on record?
The inhibition was inactive: -4.43%.

How did the inhibition turn out when O=C(NC(Sc1ccncn1)C(Cl)(Cl)Cl)c1ccccc1 (centres undefined) was run?
Its inhibition is inactive: 1.42%.

Which inhibition does the source give for Cc1c2non([O-])c-2c(C)[n+](=O)[n+]1[O-] here?
The inhibition was inactive: 1.98%.

For COc1ccccc1OP(=O)(Nc1ccc(C)cn1)Oc1ccccc1OC, which inhibition is on record?
Its inhibition is inactive: -6.39%.

Cc1ccc(OP(=O)(Nc2nccs2)Oc2ccc(C)cc2)cc1 was tested. Which inhibition did it give?
The inhibition was inactive: 0.397%.

CN1CCCC(OC(=O)C(c2ccccc2)c2ccccc2)C1 (centres undefined) was tested. Which inhibition did it give?
Its inhibition is inactive: -2.86%.

How did the inhibition turn out when Clc1ccc(Cl)c(NC2=NCC(CBr)S2)c1 (centres undefined) was run?
The inhibition was inactive: 1.48%.

With NC(=O)c1cc([N+](=O)[O-])cc([N+](=O)[O-])c1N as the molecule, how does the inhibition read?
Its inhibition is inactive: -7.92%.

How did the inhibition turn out when CN(C(=O)Cc1ccc(Cl)c(Cl)c1)[C@H]1CCCC[C@H]1N1CCCC1 was run?
The inhibition was inactive: -7.33%.

For Cc1ccc(N/C(=N/P(=O)(N2CCOCC2)N2CCOCC2)N2CCOCC2)cc1, which inhibition is on record?
The inhibition was inactive: 6.28%.

CC(C)=N/N=C(\N)N[N+](=O)[O-] was tested. Which inhibition did it give?
The inhibition was inactive: -4.66%.

How did the inhibition turn out when CN(C)C(=O)OCCc1n(C)cc[n+]1C was run?
The inhibition was inactive: -9.37%.

For CC1CCN(C(=O)Oc2c(Cl)cc(Cl)c3cccnc23)CC1, which inhibition is on record?
Its inhibition is inactive: -4.43%.

With Nc1ccc([As](=O)(O)c2ccc(N)cc2)cc1 as the molecule, how does the inhibition read?
The inhibition was inactive: -1.81%.

How did the inhibition turn out when C[N+]1=C2C=CC=CC=C2SC12C([N+](=O)[O-])=CC([N+](=O)[O-])=C[C-]2[N+](=O)[O-] (centres undefined) was run?
Its inhibition is inactive: 5.93%.

For CCN(/C(=N/P(=O)(N1CCOCC1)N1CCOCC1)N1CCOCC1)c1ccc(OC)cc1, which inhibition is on record?
The inhibition was inactive: -4.16%.

O=[N+]([O-])c1cccc2n[nH]nc12 was tested. Which inhibition did it give?
The inhibition was inactive: 4.34%.

With CC(=O)N1C2C3N(C(C)=O)C1C1N(C(C)=O)C(C(N1C(C)=O)N3C(C)=O)N2C(C)=O as the molecule, how does the inhibition read?
Its inhibition is inactive: -3.93%.

Which inhibition does the source give for Cc1ccc(NP(=O)(Oc2ccccc2)Oc2ccccc2)nc1 here?
Its inhibition is inactive: -9.06%.

How did the inhibition turn out when CCc1nc2c(n1)c1c(non1O)c1c2no[n+]1[O-] was run?
The inhibition was inactive: 1.78%.

With O=[N+]([O-])c1cc([N+](=O)[O-])c(CCNc2ccccc2)c([N+](=O)[O-])c1 as the molecule, how does the inhibition read?
The inhibition was inactive: 8.67%.

For COc1ccc(C2=NCC(CBr)S2)cc1 (centres undefined), which inhibition is on record?
Its inhibition is inactive: 0.215%.

With O=[N+]([O-])c1cccc(NC2=NCC(CBr)S2)c1 (centres undefined) as the molecule, how does the inhibition read?
The inhibition was inactive: 1.65%.

With CC(C)(C)C(=O)NC(Sc1ccncn1)C(Cl)(Cl)Cl (centres undefined) as the molecule, how does the inhibition read?
The inhibition was inactive: -8.42%.

O=[N+]([O-])c1ncn(CCn2ncnc2[N+](=O)[O-])n1 was tested. Which inhibition did it give?
Its inhibition is inactive: -6.48%.

Which inhibition does the source give for O=C(Nc1cc([As](=O)(O)O)ccc1O)c1ccccc1 here?
Its inhibition is inactive: -7.11%.

With C(Cc1nn[nH]n1)Cc1nn[nH]n1 as the molecule, how does the inhibition read?
Its inhibition is inactive: 3.47%.

For Nc1ccc([As](=O)(O)c2ccc([N+](=O)[O-])cc2)cc1, which inhibition is on record?
The inhibition was inactive: -3.93%.

For O=C(OC1CN2CCC1CC2)c1cccc(Cl)c1 (centres undefined), which inhibition is on record?
Its inhibition is inactive: -1.44%.

With O=[N+]([O-])c1ncn(CCn2cnc([N+](=O)[O-])n2)n1 as the molecule, how does the inhibition read?
Its inhibition is inactive: -0.183%.

O=[As](O)(c1ccccc1)c1ccc(O)cc1 was tested. Which inhibition did it give?
The inhibition was inactive: -3.8%.

O=P(Nc1nc2ccccc2s1)(c1ccccc1)c1ccccc1 was tested. Which inhibition did it give?
The inhibition was inactive: 0.934%.

Which inhibition does the source give for C[C@H]1OP(=O)(Oc2ccccc2)[C@H](O)[C@H](O)[C@H]1N=[N+]=[N-] (some centres undefined) here?
The inhibition was inactive: -9.69%.

O=P(Nc1ccccn1)(c1ccc(Br)cc1)c1ccc(Br)cc1 was tested. Which inhibition did it give?
The inhibition was inactive: -1.15%.

How did the inhibition turn out when CN(C)C1(CNC(=O)c2ccc(Cl)c(S(N)(=O)=O)c2)CCCCC1 was run?
Its inhibition is inactive: -1.83%.

With c1nnnn1CCn1cnnn1 as the molecule, how does the inhibition read?
The inhibition was inactive: -8.78%.

With CC(C)C(=O)NC(Sc1ccccc1)C(Cl)(Cl)Cl (centres undefined) as the molecule, how does the inhibition read?
Its inhibition is inactive: -14.2%.

Which inhibition does the source give for O=P(Nc1nccs1)(c1ccccc1)c1ccccc1 here?
Its inhibition is inactive: 4.41%.
